Only a part is listed here, and it is no random draw.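 Note: values are percent growth. 100 is the growth of untreated cells, values between 100 and 0 indicate rising inhibition; between -100 and 0 indicates cell death.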 Calls of active or inactive are those of the source. How the source made its calls: active means growth percent below 10; inactive means the rest.
How the values were obtained:
Test in all cases: NCI-60 one-dose screen, 48 h (100 = growth as untreated, 0 = no growth, -100 = all killed)
HCT-15 colon = conditions: 10 µM unless noted
HT29 colon = conditions: 10 µM unless noted
SNB-75 CNS = conditions: 10 µM unless noted
SNB-19 CNS = conditions: 10 µM unless noted
U251 CNS = conditions: 10 µM unless noted
PC-3 prostate = conditions: 10 µM unless noted
SK-MEL-5 melanoma = conditions: 10 µM unless noted
UACC-62 melanoma = conditions: 10 µM unless noted
LOX IMVI melanoma = conditions: 10 µM
SK-MEL-28 melanoma = conditions: 10 µM unless noted

Measured: growth

NP(=O)(N(CCCl)CCCl)N1CC1 (stereo not given)
inactive: HCT-15 colon 106% | HT29 colon 94.3% | SNB-75 CNS 81.9% | SNB-19 CNS 106% | U251 CNS 103% | PC-3 prostate 97.9% | SK-MEL-5 melanoma 106% | UACC-62 melanoma 110% | LOX IMVI melanoma 96.8% | SK-MEL-28 melanoma 107%

Cc1ccccc1OP(=O)(Cl)Oc1ccccc1C
inactive: HCT-15 colon 108% | HT29 colon 99.4% | SNB-75 CNS 96.2% | SNB-19 CNS 100% | U251 CNS 105% | PC-3 prostate 100% | SK-MEL-5 melanoma 101% | UACC-62 melanoma 94.7% | LOX IMVI melanoma 110% | SK-MEL-28 melanoma 112%

CCN(CCI)Cc1cccc2ccccc12
inactive: HCT-15 colon 103% | HT29 colon 99.2% | SNB-75 CNS 86.8% | SNB-19 CNS 100% | U251 CNS 97.7% | PC-3 prostate 96.3% | SK-MEL-5 melanoma 101% | UACC-62 melanoma 97.1% | LOX IMVI melanoma 95.3% | SK-MEL-28 melanoma 109%

CCCCCCCCCCNP(=S)(Cl)Cl
inactive: HCT-15 colon 102% | HT29 colon 101% | SNB-75 CNS 90.9% | SNB-19 CNS 97.8% | U251 CNS 95.4% | PC-3 prostate 99% | SK-MEL-5 melanoma 101% | UACC-62 melanoma 95.4% | LOX IMVI melanoma 99% | SK-MEL-28 melanoma 106%

C/C(N)=N/P(=O)(Oc1ccccc1)Oc1ccccc1
inactive: HCT-15 colon 102% | HT29 colon 95.9% | SNB-75 CNS 89.1% | SNB-19 CNS 101% | U251 CNS 103% | PC-3 prostate 101% | SK-MEL-5 melanoma 100% | UACC-62 melanoma 101% | LOX IMVI melanoma 97.5% | SK-MEL-28 melanoma 114%

Cc1ccc(C)c(C(=O)N(CCCl)CCCl)c1
inactive: HCT-15 colon 101% | HT29 colon 105% | SNB-75 CNS 97.2% | SNB-19 CNS 103% | U251 CNS 97.9% | PC-3 prostate 102% | SK-MEL-5 melanoma 101% | UACC-62 melanoma 99.7% | LOX IMVI melanoma 105% | SK-MEL-28 melanoma 102%

COC(=O)C1(C)COP(=O)(NCc2ccccc2)OC1 (stereo not given)
inactive: HCT-15 colon 113% | HT29 colon 99.2% | SNB-75 CNS 93.7% | SNB-19 CNS 98.8% | U251 CNS 107% | PC-3 prostate 104% | SK-MEL-5 melanoma 104% | UACC-62 melanoma 90.7% | LOX IMVI melanoma 95.2% | SK-MEL-28 melanoma 112%

ClCCN1c2ccccc2Sc2ccccc21
inactive: HCT-15 colon 95.1% | HT29 colon 103% | SNB-75 CNS 112% | SNB-19 CNS 99.6% | U251 CNS 100% | PC-3 prostate 94.4% | SK-MEL-5 melanoma 99% | UACC-62 melanoma 98.5% | LOX IMVI melanoma 103% | SK-MEL-28 melanoma 114%

CCN(CC)CCOC(=O)C(O)(c1cccc(OC)c1OC)c1cccc(OC)c1OC
inactive: HCT-15 colon 98% | HT29 colon 92.3% | SNB-75 CNS 105% | SNB-19 CNS 97.5% | U251 CNS 92.6% | PC-3 prostate 89.2% | SK-MEL-5 melanoma 90.8% | UACC-62 melanoma 99.7% | LOX IMVI melanoma 99.6% | SK-MEL-28 melanoma 111%

O=C(CCC(=O)Oc1c(Cl)cc([N+](=O)[O-])cc1[N+](=O)[O-])Oc1c(Cl)cc([N+](=O)[O-])cc1[N+](=O)[O-]
inactive: HCT-15 colon 109% | HT29 colon 101% | SNB-75 CNS 105% | SNB-19 CNS 111% | U251 CNS 104% | PC-3 prostate 103% | SK-MEL-5 melanoma 99.1% | UACC-62 melanoma 110% | LOX IMVI melanoma 101% | SK-MEL-28 melanoma 115%

COC(=O)C1(C)COP(=O)(Nc2ccccc2)OC1 (stereo not given)
inactive: HCT-15 colon 104% | HT29 colon 91.9% | SNB-75 CNS 108% | SNB-19 CNS 96.1% | U251 CNS 101% | PC-3 prostate 116% | SK-MEL-5 melanoma 106% | UACC-62 melanoma 95.8% | LOX IMVI melanoma 94.5% | SK-MEL-28 melanoma 123%

COP(=O)(CCCBr)OC
inactive: HCT-15 colon 96.8% | HT29 colon 100% | SNB-75 CNS 89.8% | SNB-19 CNS 99.4% | U251 CNS 96.9% | PC-3 prostate 98.1% | SK-MEL-5 melanoma 99.5% | UACC-62 melanoma 104% | LOX IMVI melanoma 99.5% | SK-MEL-28 melanoma 101%

O=P1(N(CCCl)CCCl)OCCCN1CCCl (stereo not given)
inactive: HCT-15 colon 100% | HT29 colon 117% | SNB-75 CNS 99.4% | SNB-19 CNS 106% | U251 CNS 97.6% | PC-3 prostate 93.7% | SK-MEL-5 melanoma 99.4% | UACC-62 melanoma 111% | LOX IMVI melanoma 107% | SK-MEL-28 melanoma 120%

Nc1ccc(N(CCCl)CCCl)cc1
inactive: HCT-15 colon 75.3% | HT29 colon 66.9% | SNB-75 CNS 67.5% | SNB-19 CNS 87.1% | U251 CNS 64.4% | PC-3 prostate 70.5% | SK-MEL-5 melanoma 78.9% | UACC-62 melanoma 44.1% | LOX IMVI melanoma 45.7% | SK-MEL-28 melanoma 98.5%

CSc1ccc(Nc2c([N+](=O)[O-])cc([N+](=O)[O-])cc2[N+](=O)[O-])cc1
inactive: HCT-15 colon 31.6% | HT29 colon 26.8% | SNB-75 CNS 81.7% | SNB-19 CNS 67.2% | U251 CNS 22.4% | PC-3 prostate 36.8% | SK-MEL-5 melanoma 83.2% | UACC-62 melanoma 44.5% | LOX IMVI melanoma 51.4% | SK-MEL-28 melanoma 91%

CC(C)N(CCCl)/N=N/c1nc2nc[nH]c(=O)c2[nH]1
inactive: HCT-15 colon 105% | HT29 colon 96.5% | SNB-75 CNS 98.9% | SNB-19 CNS 103% | U251 CNS 107% | PC-3 prostate 105% | SK-MEL-5 melanoma 102% | UACC-62 melanoma 99.6% | LOX IMVI melanoma 99.2% | SK-MEL-28 melanoma 112%

CCOC(=O)CCNCCSP(=O)(O)O
inactive: HCT-15 colon 103% | HT29 colon 104% | SNB-75 CNS 139% | SNB-19 CNS 99.2% | U251 CNS 104% | PC-3 prostate 104% | SK-MEL-5 melanoma 99.8% | UACC-62 melanoma 98.9% | LOX IMVI melanoma 92.2% | SK-MEL-28 melanoma 109%

O=C(O[C@H]1CN2CCC1CC2)C1NCc2ccccc2[C@@H]1c1ccccc1 (stereo not given in full)
inactive: HCT-15 colon 93.6% | HT29 colon 72.1% | SNB-75 CNS 74.9% | SNB-19 CNS 102% | U251 CNS 99% | PC-3 prostate 88.2% | SK-MEL-5 melanoma 90% | UACC-62 melanoma 100% | LOX IMVI melanoma 96.5% | SK-MEL-28 melanoma 110%

CCOP(=O)(Nc1ccccc1)OCC
inactive: HCT-15 colon 101% | HT29 colon 103% | SNB-75 CNS 94% | SNB-19 CNS 92% | U251 CNS 99% | PC-3 prostate 94.4% | SK-MEL-5 melanoma 103% | UACC-62 melanoma 82.3% | LOX IMVI melanoma 98.1% | SK-MEL-28 melanoma 117%

COC(=O)c1ccc(N2CCOP2(=O)Cl)cc1O (stereo not given)
inactive: HCT-15 colon 99.9% | HT29 colon 98.1% | SNB-75 CNS 85.8% | SNB-19 CNS 109% | U251 CNS 96.7% | PC-3 prostate 96.9% | SK-MEL-5 melanoma 104% | UACC-62 melanoma 106% | LOX IMVI melanoma 118% | SK-MEL-28 melanoma 97.6%

O=C(Nc1ccc([N+](=O)[O-])cc1)N(CCBr)CCBr
inactive: HCT-15 colon 95% | HT29 colon 101% | SNB-75 CNS 77.6% | SNB-19 CNS 102% | U251 CNS 93.2% | PC-3 prostate 92.9% | SK-MEL-5 melanoma 97.8% | UACC-62 melanoma 112% | LOX IMVI melanoma 93.5% | SK-MEL-28 melanoma 102%

O=C(OCCNCCCl)c1ccccc1
inactive: HCT-15 colon 101% | HT29 colon 111% | SNB-75 CNS 82.7% | SNB-19 CNS 105% | U251 CNS 104% | PC-3 prostate 99.5% | SK-MEL-5 melanoma 105% | UACC-62 melanoma 106% | LOX IMVI melanoma 98.6% | SK-MEL-28 melanoma 102%

CN(C)P(=O)(Nc1ccccn1)N(C)C
inactive: HCT-15 colon 109% | HT29 colon 100% | SNB-75 CNS 88.4% | SNB-19 CNS 104% | U251 CNS 98% | PC-3 prostate 92.9% | SK-MEL-5 melanoma 98.4% | UACC-62 melanoma 110% | LOX IMVI melanoma 96.8% | SK-MEL-28 melanoma 117%

O=C1OP(=O)(Cl)Oc2ccccc21 (stereo not given)
inactive: HCT-15 colon 103% | HT29 colon 99.6% | SNB-75 CNS 102% | SNB-19 CNS 102% | U251 CNS 98.4% | PC-3 prostate 86.9% | SK-MEL-5 melanoma 99.1% | UACC-62 melanoma 97.9% | LOX IMVI melanoma 102% | SK-MEL-28 melanoma 107%

O=C1CSC(C(Cl)(Cl)Cl)N1c1ccc(Cl)cc1 (stereo not given)
inactive: HCT-15 colon 96.1% | HT29 colon 97.8% | SNB-75 CNS 94.2% | SNB-19 CNS 104% | U251 CNS 92.9% | PC-3 prostate 86.9% | SK-MEL-5 melanoma 97.3% | UACC-62 melanoma 81.5% | LOX IMVI melanoma 97% | SK-MEL-28 melanoma 106%

O=[As](O)(c1ccc(Cl)cc1)C1CCCCC1O (stereo not given)
inactive: HCT-15 colon 88.3% | HT29 colon 92.2% | SNB-75 CNS 85.6% | SNB-19 CNS 102% | U251 CNS 91.3% | PC-3 prostate 72.7% | SK-MEL-5 melanoma 90.9% | UACC-62 melanoma 92.5% | LOX IMVI melanoma 96.6% | SK-MEL-28 melanoma 103%

NC(=O)Nc1ccc([As](=O)(O)O)cc1
inactive: HCT-15 colon 99.2% | HT29 colon 96.5% | SNB-75 CNS 73.2% | SNB-19 CNS 103% | U251 CNS 101% | PC-3 prostate 96.1% | SK-MEL-5 melanoma 104% | UACC-62 melanoma 104% | LOX IMVI melanoma 93.3% | SK-MEL-28 melanoma 108%

C/C(N)=N\P(=O)(OCc1ccccc1)OCc1ccccc1
inactive: HCT-15 colon 96.5% | HT29 colon 106% | SNB-75 CNS 90.6% | SNB-19 CNS 104% | U251 CNS 99.1% | PC-3 prostate 100% | SK-MEL-5 melanoma 105% | UACC-62 melanoma 95.7% | LOX IMVI melanoma 99.2% | SK-MEL-28 melanoma 105%

From PubChem BioAssay (NCI)
